Antibody variant affinities, Ab-14 heavy chain, assay B

All variants were tested on one target, the spike HR2 peptide PDVDLGDISGINAS (SARS-CoV-2).

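The starting antibody came from a phage panning campaign against this peptide. These sequences belong to a second round, designed from the earlier measurements on random variants of the parent. Their group label is 14H_GP_Gen (GP: Gaussian process model; Gen: genetic algorithm; a sequence that several methods proposed may carry one label only). The assay is AlphaSeq: two haploid yeast populations carry antibody and antigen on their surface. After mating in shaken culture at 30 °C for 16 h, diploids were selected and their barcode pairs sequenced. Scores were corrected for input abundance and mapped to Kd with protein pairs of known affinity run in the same pool. There are six technical replicates.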

Ab-14 is the parent antibody, in scFv form: VH, then a 15-residue (Gly4Ser)3 linker, then VL. The light chain is unchanged in all variants.
VH: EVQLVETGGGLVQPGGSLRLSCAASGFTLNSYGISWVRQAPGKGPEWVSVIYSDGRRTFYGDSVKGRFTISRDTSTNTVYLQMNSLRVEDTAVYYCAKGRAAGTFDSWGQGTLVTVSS
VL: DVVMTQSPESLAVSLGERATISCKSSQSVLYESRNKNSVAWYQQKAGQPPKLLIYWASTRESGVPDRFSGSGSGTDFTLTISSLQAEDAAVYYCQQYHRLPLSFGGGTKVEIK

Each variant is given by its three heavy chain CDRs, as the data file delimits them; those of the parent are GFTLNSYGIS, VIYSDGRRTFYGDSVK, GRAAGTFDS.
The read-out is the apparent dissociation constant on a log10 scale (nM): the lower, the stronger.
"ND" means that the variant was in the library but no mating with the target was seen in that replicate; the authors take this as a sign of poor binding, and no number exists.
Values of this round are not directly comparable with the first-round values of the same sequences.
Empty control strains, which show no peptide, gave a signal in 1% of pairings with all heavy chain designs; the median was 2.08 and 95% of these signals were weaker than 0.84. No background was subtracted. Also given: how often the same scFv was detected with the empty control strains, with their mean in brackets.
In the paper, a design with two or fewer of six values counts as a poor binder.
The parent sequence was in this pool as ten entries: three were never detected, three once, and four in most replicates, with averages from 0.34 to 2.37.

| # | CDR-H1 | CDR-H2 | CDR-H3 | log10 Kd, replicates | control signals |
|---|---|---|---|---|---|
| 1 | GFQLNSYGIS | VIYSDGRRTFYGDSVK | GQTAGTFDS | 1.12 / 1.09 / 1.33 / 1.94 / 1.34 / 0.76 | 0 of 18 |
| 2 | GFDLNSYGIS | VIYSDGKRTFYHDSVK | GRTAGTFDS | 0.35 / 0.23 / 0.86 / 0.30 / 0.53 / 0.40 | 0 of 18 |
| 3 | WFTLNEYGIS | VIYSDGRRTFYGDSVK | GRTAGTFDS | ND / ND / ND / ND / ND / 1.14 | 0 of 18 |
| 4 | KFSLNWYGIS | VIYSDGRRTFYGDSVK | GRTAGTFDS | ND / ND / ND / ND / ND / ND | 0 of 18 |
| 5 | FFSLNEYGIS | VIYSDGRRTFYGDSVK | GRTAGTFDS | ND / 1.35 / ND / 1.66 / ND / ND | 0 of 18 |
| 6 | GFGLNMYGIS | VIYSDGRRTFYGDSVK | GRTAGTFDS | ND / 1.47 / 3.14 / 1.41 / ND / 1.61 | 0 of 18 |
| 7 | GFNLNSYGIS | VIYSDGRRTFYIDRVK | GNAAGTFDS | ND / ND / 1.71 / ND / 3.76 / ND | 0 of 18 |
| 8 | GFSLNSYGIS | VIYSDGKRTFYSDSVK | GRQAGTFDS | 0.06 / -0.06 / -0.21 / 0.34 / 0.49 / 0.20 | 1 of 18 (1.24) |
| 9 | GFELNSYGIS | VIYSDGRRTFYDDSVK | GQTAGTFDS | 0.49 / 0.41 / 0.29 / 0.32 / 0.34 / 0.95 | 0 of 18 |
| 10 | GFWLNEYGIS | VIYSDGRRTFYGDSVK | GHAAGTFDS | ND / ND / ND / 2.76 / 0.55 / ND | 0 of 18 |
| 11 | GFELNEYGIS | VIYSDGRRTFYQDSVK | GRTAGTFDS | -0.04 / 0.32 / 0.13 / 0.30 / 0.31 / 0.39 | 0 of 18 |
| 12 | GFDLNSYGIS | VIYSDGRRTFYGDSVK | GQTAGTFDQ | 1.50 / 0.94 / 0.67 / 1.17 / 1.63 / 0.98 | 0 of 18 |
| 13 | KFELNEYGIS | VIYSDGRRTFYGDSVK | GKTAGTFDS | ND / 1.33 / ND / 1.35 / ND / 0.67 | 0 of 18 |
| 14 | GFDLNSYGIS | VIYSDGKRTFYGDPVK | GRTAGTFDS | 0.57 / 0.06 / -0.56 / 0.65 / 0.03 / 0.21 | 0 of 18 |
| 15 | MFDLNSYGIS | VIYSDGRRTFYGDSVK | GQTAGTFDA | 0.94 / 2.20 / 1.57 / 1.21 / 1.12 / 1.73 | 0 of 18 |
| 16 | GFDLNSYGIS | VIYSDGRRTFYGDKVK | GKTAGTFDS | ND / 1.12 / 0.32 / 1.06 / 1.10 / ND | 0 of 18 |
| 17 | GFNLNSYGIS | VIYSDGRRTFYGDSVK | GWQAGTFDS | 2.18 / 2.20 / 1.90 / 2.29 / 1.99 / 2.07 | 0 of 18 |
| 18 | GFDLNSYGIS | VIYSDGRRTFYVDSVK | GQVAGTFDS | 0.94 / 0.29 / 0.35 / 0.22 / -0.05 / 0.33 | 0 of 18 |
| 19 | GKSLNSYGIS | VIYSDGRRTAYGDSVK | GRAAGTFDS | 2.90 / 2.03 / 1.23 / 2.91 / 1.77 / 2.81 | 1 of 18 (1.82) |
| 20 | GFDLNKYGIS | VIYSDGRRTFYGDSVK | GQAAGTFDS | 0.42 / 0.18 / 0.05 / -0.09 / -0.02 / -0.02 | 0 of 18 |
| 21 | GFELNNYGIS | VIYSDGRRTFYGDSVK | GREAGTFDT | 0.16 / 0.23 / -0.15 / -0.31 / -0.27 / -0.06 | 2 of 18 (1.70) |
| 22 | GFNLNSYGIS | VIYSDGRRTFYKDKVK | GRTAGTFDS | 0.25 / ND / ND / 0.15 / 1.18 / ND | 0 of 18 |
| 23 | GFNLNSYGIS | VIYSDGRRTFYGDNVK | GREAGTFDS | 0.38 / 0.14 / 0.13 / -0.01 / 1.09 / 0.26 | 0 of 18 |
| 24 | KFDLNSYGIS | VIYSDGRRTFYQDSVK | GRNAGTFDS | 1.09 / 0.64 / 1.63 / 0.93 / 1.33 / 1.11 | 0 of 18 |
| 25 | GFSLNEYGIS | VIYSDGRRTFYGDSVK | GRTAGTFFS | ND / ND / ND / ND / 1.94 / 2.52 | 0 of 18 |
| 26 | SFSLNSYGIS | VIYSDGRRTFYGDSVK | GKTAGTFDS | ND / 1.55 / 1.03 / 1.50 / 1.34 / 1.80 | 1 of 18 (1.15) |
| 27 | GFDLNSYGIS | VIYSDGRRTFYGDSVK | GKTAGTFDE | 0.14 / 0.66 / 0.41 / 0.07 / -0.19 / 0.74 | 0 of 18 |
| 28 | GFTLNSYGIS | VIYSDGMRTFYSDSVK | GKAAGTFDT | 0.42 / 0.27 / 0.06 / 0.25 / 0.12 / 0.24 | 0 of 18 |
| 29 | MFDLNSYGIS | VIYSDGRRTFYGDSVK | GWTAGTFDS | ND / ND / ND / ND / ND / ND | 0 of 18 |
| 30 | GFHLNSYGIS | VIYSDGRRTFYGDSVK | GKTAGTFDA | ND / 2.93 / 1.19 / 0.26 / 1.53 / 2.10 | 0 of 18 |
| 31 | GFNLNSYGIS | VIYSDGRRTFYGDNVK | GRQAGTFDS | 0.11 / 0.17 / 0.19 / 1.88 / 1.56 / 0.18 | 0 of 18 |
| 32 | GFQLNEYGIS | VIYSDGRRTFYGDSVK | GQTAGTFDT | 0.18 / 0.00 / -0.24 / -0.05 / 0.03 / 0.34 | 1 of 18 (3.49) |
| 33 | GFDLNSYGIS | VIYSDGRRTFYVDEVK | GRQAGTFDS | 0.31 / 0.14 / 0.32 / 0.04 / -0.15 / 0.14 | 0 of 18 |
| 34 | GFWLNEYGIS | VIYSDGRRTFYGDSVK | GQAAGTFDT | ND / ND / ND / ND / ND / ND | 0 of 18 |
| 35 | GESLNSYGIS | VIYSDGRRTAYGDSVK | GRAAGTFDS | ND / ND / ND / ND / ND / ND | 0 of 18 |

Top 3 of the variants detected in all replicates, tightest first:

CDR-H1	CDR-H2	CDR-H3	log10 Kd, replicates	control signals
GFELNNYGIS	VIYSDGRRTFYGDSVK	GREAGTFDT	0.16 / 0.23 / -0.15 / -0.31 / -0.27 / -0.06	2 of 18 (1.70)
GFQLNEYGIS	VIYSDGRRTFYGDSVK	GQTAGTFDT	0.18 / 0.00 / -0.24 / -0.05 / 0.03 / 0.34	1 of 18 (3.49)
GFDLNKYGIS	VIYSDGRRTFYGDSVK	GQAAGTFDS	0.42 / 0.18 / 0.05 / -0.09 / -0.02 / -0.02	0 of 18

Source: Li et al. 2023 (doi:10.1038/s41467-023-39022-2), MIT Lincoln Laboratory and A-Alpha Bio; data file from the FLAb repository.